Assay results reported in patent publication US6875852 (CORNELL RESEARCH FOUNDATION, dated 2005).

T1: δ′ subunit of DNA polymerase III holoenzyme (holB gene product) (E. coli, UniProt P28631 1-334)
T1 construct: The preparation is a mixture of two polypeptides, δ′S (size predicted by the gene) and δ′L (521 Da larger), about 2:1; It is monomeric; also called delta prime; cloned δ′
T1 sequence: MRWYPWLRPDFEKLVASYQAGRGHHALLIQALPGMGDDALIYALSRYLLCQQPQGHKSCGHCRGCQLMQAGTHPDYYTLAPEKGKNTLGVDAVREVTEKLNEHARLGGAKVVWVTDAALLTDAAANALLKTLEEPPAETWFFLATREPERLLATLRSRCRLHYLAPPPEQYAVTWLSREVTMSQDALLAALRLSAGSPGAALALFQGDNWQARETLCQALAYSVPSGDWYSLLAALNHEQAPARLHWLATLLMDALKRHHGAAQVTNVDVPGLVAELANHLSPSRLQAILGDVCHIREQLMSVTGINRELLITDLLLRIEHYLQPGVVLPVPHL

T2: α subunit of DNA polymerase III holoenzyme (E. coli, UniProt P10443 1-1160)
T2 construct: mature; also called alpha
T2 sequence: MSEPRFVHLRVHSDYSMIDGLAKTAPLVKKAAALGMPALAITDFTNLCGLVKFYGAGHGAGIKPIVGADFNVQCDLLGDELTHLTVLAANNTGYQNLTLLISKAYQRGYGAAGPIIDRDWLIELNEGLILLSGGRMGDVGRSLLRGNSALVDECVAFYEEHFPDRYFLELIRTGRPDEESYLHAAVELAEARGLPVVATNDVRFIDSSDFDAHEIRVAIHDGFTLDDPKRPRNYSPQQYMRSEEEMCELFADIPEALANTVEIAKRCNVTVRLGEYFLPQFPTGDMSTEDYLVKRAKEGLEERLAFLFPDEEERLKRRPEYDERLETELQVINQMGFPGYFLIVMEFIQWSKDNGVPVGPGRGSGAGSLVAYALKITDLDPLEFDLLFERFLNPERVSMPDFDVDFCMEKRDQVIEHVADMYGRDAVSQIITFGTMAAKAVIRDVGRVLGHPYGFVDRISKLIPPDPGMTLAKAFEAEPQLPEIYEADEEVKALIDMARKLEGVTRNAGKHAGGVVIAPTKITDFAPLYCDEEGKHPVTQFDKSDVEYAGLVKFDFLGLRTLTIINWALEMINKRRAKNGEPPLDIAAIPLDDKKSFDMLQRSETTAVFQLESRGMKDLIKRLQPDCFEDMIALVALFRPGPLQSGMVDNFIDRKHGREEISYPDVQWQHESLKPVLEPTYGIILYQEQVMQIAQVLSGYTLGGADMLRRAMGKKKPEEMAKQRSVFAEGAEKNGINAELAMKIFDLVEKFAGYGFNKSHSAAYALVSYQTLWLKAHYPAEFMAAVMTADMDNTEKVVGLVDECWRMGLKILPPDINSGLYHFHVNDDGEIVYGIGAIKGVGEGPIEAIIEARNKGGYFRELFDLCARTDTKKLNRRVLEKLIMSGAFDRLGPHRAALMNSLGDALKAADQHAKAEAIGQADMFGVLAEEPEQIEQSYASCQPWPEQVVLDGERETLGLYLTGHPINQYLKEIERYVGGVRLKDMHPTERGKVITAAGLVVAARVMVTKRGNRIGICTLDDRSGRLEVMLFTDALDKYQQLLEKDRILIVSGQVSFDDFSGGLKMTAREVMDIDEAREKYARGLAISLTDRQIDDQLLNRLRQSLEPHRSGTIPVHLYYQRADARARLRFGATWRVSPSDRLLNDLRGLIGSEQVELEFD

B1: δ subunit of DNA polymerase III holoenzyme (holA gene product) (other)
chain: MIRLYPEQLRAQLNEGLRAAYLLLGNDPLLLQESQDAVRQVAAAQGFEEHHTFSIDPNTDWNAIFSLCQAMSLFASRQTLLLLLPENGPNAAINEQLLTLTGLLHDDLLLIVRGNKLSKAQENAAWFTALANRSVQVTCQTPEQAQLPRWVAARAKQLNLELDDAANQVLCYCYEGNLLNLAQALERLSLLWPDGKLTLPRVEQAVNDAAHFTPFHWVDALLMGKSKRALHILQQLRLGGSEPVILLRTLQRELLLLVNLKRQSAHTPLRALFDKHRVWQNRRGMMGEALNRLSQTQLRQAVQLLTRTELTLKQDYGQSVWAELEGLSLLLCHKPLADVFIDG
notes: Overproduced from pETdelta and purified; 343 amino acids; Monomer in gel filtration and sedimentation; also called delta; cloned δ
B2: θ subunit of DNA polymerase III holoenzyme (holE gene product) (other)
chain: MLKNLAKLDQTEMDKVNVDLAAAGVAFKERYNMPVIAEAVEREQPEHLRSWFRERLIAHRLASVNLSRLPYEPKLK
notes: 76 amino acids, printed in three-letter code and converted here; Monomer; also called theta
B3: ε subunit of DNA polymerase III holoenzyme (enzyme)
chain: MSTAITRQIVLDTETTGMNQIGAHYEGHKIIEIGAVEVVNRRLTGNNFHVYLKPDRLVDPEAFGVHGIADEFLLDKPTFAEVADEFMDYIRGAELVIHNAAFDIGFMDYEFSLLKRDIPKTNTFCKVTDSLAVARKMFPGKRNSLDALCARYEIDNSKRTLHGALLDAQILAEVYLAMTGGQTSMAFAMEGETQQQQGEATIQRIVRQASKLRVVFATDEEIAAHEARLDLVQKKGGSCLWRA
notes: mature; also called epsilon

Key:
[1] = molecular target: T1, δ′ subunit of DNA polymerase III …; experiment: densitometry of Coomassie Blue stained gel of the δδ′ complex
[2] = molecular target: B3; experiment: densitometric analysis of the εθ complex
[3] = molecular target: B3; experiment: cell-based or functional assay
[4] = molecular target: T2, α subunit of DNA polymerase III …; experiment: gel filtration at 73 µM α and 73 µM ε

B1
molar ratio δ:δ′ in the complex [1]: 1.1 mol δ per mol δ′

B2
molar ratio in the εθ complex [2]: 0.8 mol θ per mol ε
3′→5′ exonuclease activity of ε (excision of a 3′ mismatched T residue) [3]: 3 fold

B3
binding result [4]: binds
